{"sequences": {"note": "Amino acid sequences for entries named in this document (tags omitted). A change or cut given only in a name is not applied to a line headed by its entry.", "UniProt Q12809": "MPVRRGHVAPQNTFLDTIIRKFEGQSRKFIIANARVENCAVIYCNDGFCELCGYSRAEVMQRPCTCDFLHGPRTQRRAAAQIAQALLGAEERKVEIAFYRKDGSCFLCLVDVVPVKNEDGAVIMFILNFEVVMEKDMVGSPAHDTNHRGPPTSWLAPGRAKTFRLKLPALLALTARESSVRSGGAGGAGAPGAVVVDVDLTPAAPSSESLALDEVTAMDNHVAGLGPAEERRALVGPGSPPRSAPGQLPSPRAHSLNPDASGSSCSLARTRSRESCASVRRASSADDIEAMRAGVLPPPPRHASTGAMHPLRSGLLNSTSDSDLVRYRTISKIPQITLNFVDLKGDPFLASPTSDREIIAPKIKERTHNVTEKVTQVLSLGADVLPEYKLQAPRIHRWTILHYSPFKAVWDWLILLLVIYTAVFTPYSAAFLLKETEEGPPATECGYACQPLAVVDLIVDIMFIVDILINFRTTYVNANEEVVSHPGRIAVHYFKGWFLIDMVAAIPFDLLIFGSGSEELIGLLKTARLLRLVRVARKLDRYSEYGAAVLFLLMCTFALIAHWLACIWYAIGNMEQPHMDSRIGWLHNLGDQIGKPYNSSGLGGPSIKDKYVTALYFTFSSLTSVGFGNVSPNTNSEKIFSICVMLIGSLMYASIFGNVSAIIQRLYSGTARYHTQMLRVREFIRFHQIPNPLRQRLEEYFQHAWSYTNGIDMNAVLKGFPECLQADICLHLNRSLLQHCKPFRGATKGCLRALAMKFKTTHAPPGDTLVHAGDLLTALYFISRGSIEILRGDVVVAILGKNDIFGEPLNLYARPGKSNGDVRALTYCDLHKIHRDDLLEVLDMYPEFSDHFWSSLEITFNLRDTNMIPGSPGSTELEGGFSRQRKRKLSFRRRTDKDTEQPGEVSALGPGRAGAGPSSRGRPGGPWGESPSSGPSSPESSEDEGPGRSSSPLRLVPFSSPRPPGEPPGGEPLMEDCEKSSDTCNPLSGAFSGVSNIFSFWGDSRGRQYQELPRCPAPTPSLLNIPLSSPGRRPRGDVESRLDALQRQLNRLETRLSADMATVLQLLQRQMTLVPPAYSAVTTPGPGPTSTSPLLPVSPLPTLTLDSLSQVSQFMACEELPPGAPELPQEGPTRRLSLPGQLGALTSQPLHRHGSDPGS"}, "source": "patent US11016100B2", "about": "“Methods for identifying modulators of ion channels” (X-Body, Inc., priority 2007, dated 2021)", "target": "human ether-a-go-go (hERG) potassium channel (Homo sapiens, UniProt Q12809)"}
{"smiles": "COc1cc(N)c(Cl)cc1C(=O)NC1CCN(CCCOc2ccc(F)cc2)CC1OC", "note": "(stereo not shown) [Cisapride monohydrate]", "values": [{"measurement": "specificity of block for hERG potassium ion channels", "value": "specific blocker for hERG potassium ion channels"}]}
